Measurements: PubChem BioAssay AID504332 (National Center for Advancing Translational Sciences (NCATS), 2011)
This is a selection; strong and weak results do not stand in their true shares. Records with an inconclusive call do not appear. The source made the active and inactive calls. The call rests on the fitted dose curve; in most records, active means well fitted inhibition curve with a large enough effect; inconclusive means small, poorly fitted or top-dose-only effect; inactive means no such curve, though single readings can be large or run the other way.

Amino acid sequences for entries named in this document (tags omitted). Residues count along the entry.
UniProt Q96KQ7, 913-1193 limits assumed: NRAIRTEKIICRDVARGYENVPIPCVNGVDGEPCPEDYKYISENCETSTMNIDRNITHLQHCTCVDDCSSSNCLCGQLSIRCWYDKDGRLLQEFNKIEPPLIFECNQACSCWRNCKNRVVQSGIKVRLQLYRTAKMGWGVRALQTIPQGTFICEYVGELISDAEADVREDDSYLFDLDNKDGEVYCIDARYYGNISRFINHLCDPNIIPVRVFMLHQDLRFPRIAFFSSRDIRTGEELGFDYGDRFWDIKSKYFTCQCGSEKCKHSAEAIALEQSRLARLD

Each compound was assayed against Histone-lysine N-methyltransferase EHMT2 (Homo sapiens) (UniProt Q96KQ7) (assay: qHTS Assay for Inhibitors of Histone Lysine Methyltransferase G9a). Conditions: G9a H3K9 monomethylation, AlphaScreen, 2 h; series mostly up to 102 µM; activity, negative = inhibition: at the top concentration.
Further: nearly all actives have a fitted effect of over 75% in size.
On the % scale 0 is the no-effect control and ±100 the full control effect; potency means the concentration at half of the fitted maximal effect.

SMILES	Potency	activity, negative = inhibition
CC(C)c1ccc(NC2CCN(C(=O)OC(C)(C)C)CC2)cc1	active: 28.2 µM	
CN(C)c1cccc(C(=O)NCC2(N3CCCCC3)CCCCC2)c1		inactive: -7.39%
COc1cc(OC)c(C(=O)NCC2(N(C)C)CCCCC2)cc1OC		inactive: 19%
O=C(NCC1(N2CCCCC2)CCCCC1)c1cncc(Br)c1		inactive: -9.3% [at 59 µM]
CCCCOc1ccccc1C(=O)NCC1(N2CCOCC2)CCCCC1		inactive: -0.944% [at 59 µM]
CCCOc1ccc(C(=O)NCC2(N(C)C)CCCCC2)cc1OC		inactive: -26.4%
O=C(NCC1(N2CCOCC2)CCCCC1)c1ccccc1Br		inactive: -23.3% [at 59 µM]
O=C(NCC1(N2CCCCC2)CCCCC1)c1ccc(OC(F)F)cc1		inactive: -1.65%
CCN1CCC(Nc2ccc(Cl)cc2)CC1	active: 79.4 µM	
O=C(NCC1(N2CCCCC2)CCCCC1)c1cccc([N+](=O)[O-])c1		inactive: 4.93%
CCOc1ccc(C(=O)NCC2(N3CCOCC3)CCCCC2)cc1		inactive: -22.6% [at 59 µM]
CSc1ccc(C(=O)NCC2(N3CCOCC3)CCCCC2)cc1		inactive: -1.87%
O=[N+]([O-])c1cc([N+](=O)[O-])c(NCC2CCS(=O)(=O)C2)c([N+](=O)[O-])c1 (configuration not stated)		inactive: -42.9%
CCCOc1cccc(C(=O)NCC2(N3CCOCC3)CCCCC2)c1		inactive: -1.81% [at 59 µM]
O=C(NCC1(N2CCCCC2)CCCCC1)c1cccc(C(F)(F)F)c1		inactive: 0.154%
COc1cc(C(=O)NCC2(N3CCCCC3)CCCCC2)ccc1OC(F)F		inactive: -16%
O=C(NCC1(N2CCOCC2)CCCCC1)c1cc(=O)[nH]c2ccccc12		inactive: -6.1%
CN1CCN(CCOC(=O)C(O)(c2ccccc2)c2ccccc2)CC1		inactive: -15.5% [at 59 µM]
COc1ccc(NC2CCN(C(=O)OC(C)(C)C)CC2)cc1	active: 3.55 µM	
CC(C)c1ccc(C(=O)NCC2(N3CCOCC3)CCCCC2)cc1		inactive: -13.7%
O=C(NCC1(N2CCOCC2)CCCCC1)c1ccc(Cl)cc1		inactive: -28.2% [at 59 µM]
COc1ccccc1C(=O)NCC1(N2CCOCC2)CCCCC1		inactive: -1.67% [at 59 µM]
O=C(NCC1(N2CCCCC2)CCCCC1)c1ccc(F)cc1		inactive: -6.62% [at 59 µM]

SMILES	Potency	activity, negative = inhibition
CCCCOc1ccc(C(=O)NCC2(N3CCOCC3)CCCCC2)cc1		inactive: -31%
COc1ccc(NC2CCN(CCc3ccccc3)CC2)c(OC)c1	active: 10 µM	
CCOC(=O)N1CCC(Nc2ccc(F)cc2)CC1		inactive: 6.23% [at 59 µM]
COc1cc(C(=O)NCC2(N(C)C)CCCCC2)ccc1OC(F)F		inactive: 0.629%
Cc1ccc(OCC(C)C)c(CN(CCCl)CCCl)c1	active: 39.8 µM	
COc1ccc(C(=O)NCC2(N3CCCCC3)CCCCC2)c(OC)c1OC		inactive: 10.7%
CC(C)(C)OC(=O)N1CCC(N(C(=O)c2ccccc2)c2ccc(F)cc2)CC1		inactive: -8% [at 2.33 µM]
O=C(NCC1(N2CCCCC2)CCCCC1)c1ccc(=O)[nH]c1		inactive: 77.6%
O=C(NCC1(N2CCCCC2)CCCCC1)c1cccs1	active: 17.8 µM	
Cc1cc(C)cc(N(C(=O)c2ccccc2)C2CCN(C(=O)OC(C)(C)C)CC2)c1		inactive: -0.298%
O=C(NCC1(N2CCOCC2)CCCCC1)c1cc2ccccc2o1		inactive: 28.7%
O=C(OC1CN2CCC1CC2)C1c2ccccc2Oc2ccccc21 (configuration not stated)		inactive: -36.7% [at 59 µM]
O=C(NCC1(N2CCCCC2)CCCCC1)c1ccc(Cl)s1		inactive: 10.6% [at 59 µM]
N#CC1(Nc2ccccc2)CCN(Cc2ccccc2)CC1		inactive: -8.09%
COc1ccc(Cl)cc1C(=O)NCC1(N2CCOCC2)CCCCC1		inactive: -3.18% [at 59 µM]
CCOC(=O)N1CCC(Nc2ccc(OC)cc2)CC1	active: 11.2 µM	
CCOc1ncccc1C(=O)NCC1(N2CCOCC2)CCCCC1		inactive: -19.4% [at 12.7 µM]
CC(C)(C)OC(=O)N1CCC(Nc2ccccc2)CC1		inactive: -47%
O=C(O)C1(Nc2ccccc2)CCN(Cc2ccccc2)CC1		inactive: -6.13%
CCCOc1ccc(C(=O)NCC2(N(C)C)CCCCC2)cc1		inactive: 8.22%
COc1cc(C(=O)NCC2(N3CCOCC3)CCCCC2)cc(OC)c1OC		inactive: -15% [at 59 µM]
COc1cc(OC)cc(C(=O)NCC2(N3CCOCC3)CCCCC2)c1		inactive: -10.9% [at 0.0925 µM]
COc1cccc(C(=O)N(c2cc(C)cc(C)c2)C2CCN(C(=O)OC(C)(C)C)CC2)c1		inactive: 2.08% [at 2.33 µM]

SMILES	Potency	activity, negative = inhibition
CN1CCC(Nc2ccc(Cl)cc2)CC1	active: 50.1 µM	
CN(C)C1(CNC(=O)c2ccc(C(C)(C)C)cc2)CCCCC1		inactive: -29% [at 59 µM]
COc1cc(OC)cc(C(=O)NCC2(N3CCCCC3)CCCCC2)c1		inactive: 4.58%
Cc1ccc(C(=O)NCC2(N3CCCCC3)CCCCC2)o1		inactive: -3.85%
CCN1CCC(Nc2cccc(F)c2)CC1	active: 50.1 µM	
Cc1ccccc1C(=O)NCC1(N(C)C)CCCCC1		inactive: -25.6% [at 59 µM]
CC(C)(C)c1ccc(C(=O)NCC2(N3CCOCC3)CCCCC2)cc1		inactive: -5.04% [at 59 µM]
O=C(NCC1(N2CCCCC2)CCCCC1)c1ccco1		inactive: 2.53% [at 12.7 µM]
N#Cc1ccc(C(=O)NCC2(N3CCCCC3)CCCCC2)cc1	active: 50.1 µM	
O=C(NCC1(N2CCOCC2)CCCCC1)c1ccccc1[N+](=O)[O-]		inactive: -23.2% [at 59 µM]
CC(C)(C)OC(=O)N1CCC(N(C(=O)c2ccccc2)c2ccc(Cl)cc2)CC1		inactive: 1.79%
O=C(NCC1(N2CCOCC2)CCCCC1)c1ccc([N+](=O)[O-])cc1		inactive: -5.66% [at 59 µM]
CCOC(=O)C(CC)C1=NC(C)(C)Cc2ccccc21.O=[N+]([O-])c1cc([N+](=O)[O-])c(O)c([N+](=O)[O-])c1 (configuration not stated)		inactive: 5.94%
CN(C)C1(CNC(=O)c2cccc(C#N)c2)CCCCC1		inactive: -3%
c1ccc(CN2CCC(Nc3ccccc3)CC2)cc1	active: 79.4 µM	
O=C(NCC1(N2CCOCC2)CCCCC1)c1ccccc1		inactive: 2.25% [at 59 µM]
O=C(NCC1(N2CCOCC2)CCCCC1)c1cc(Br)ccc1Cl		inactive: 19.2% [at 12.7 µM]
COc1ccc(C(=O)NCC2(N3CCOCC3)CCCCC2)cc1OC		inactive: 1.33% [at 59 µM]
O=C(OC1CN2CCC1CC2)C1c2ccccc2C=Cc2ccccc21 (configuration not stated)		inactive: -10.7% [at 59 µM]
CCc1cc(C(=O)NCC2(N3CCCCC3)CCCCC2)sc1C		inactive: -46.7%
O=C(O)c1cccc(Nc2c([N+](=O)[O-])cc([N+](=O)[O-])cc2[N+](=O)[O-])c1		inactive: -0.107% [at 59 µM]
